# Experimental data published in patent publication US8691818B2, “Cyclic triazo and diazo sodium channel blockers” (University Of Greenwich, priority 2008, dated 2014).
# Test system: Sodium Channel, Site 2
# Format: binding, Wistar Rat
smiles,measurement,value
"Nc1nnc(-c2cccc(Cl)c2Cl)c(N)n1 [CEN-1, Lamotrigine, reference compound]",[3H]BTX-B binding % inhibition (@ 10 μM),−28%
